## Binding of CDR-mutated scFvs to a peptide of the spike HR2 region

Target: peptide PDVDLGDISGINAS, taken from heptad repeat 2 (HR2) of SARS-CoV-2 spike.

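The parent was found by panning a naive human phage display library on the peptide. The variants were designed computationally from a first round of random CDR variants and then made and measured. Several design methods are mixed in this list. The scFvs were displayed on barcoded MATa yeast, the peptide on MATalpha yeast. Mating (16 h, 30 °C) was followed by selection of diploids and sequencing of their barcodes. The ratio of observed to expected reads was calibrated, replicate by replicate, on BCL2-family standards whose Kd was known from biolayer interferometry. Mating was done six times.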

Parent: Ab-14, a human scFv built as VH, a 15-residue (Gly4Ser)3 linker, VL. Only the CDRs of the light chain vary.
VH: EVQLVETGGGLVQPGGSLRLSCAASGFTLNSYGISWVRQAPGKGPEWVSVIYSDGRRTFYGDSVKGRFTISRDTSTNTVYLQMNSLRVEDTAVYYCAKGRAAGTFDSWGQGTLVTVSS
VL: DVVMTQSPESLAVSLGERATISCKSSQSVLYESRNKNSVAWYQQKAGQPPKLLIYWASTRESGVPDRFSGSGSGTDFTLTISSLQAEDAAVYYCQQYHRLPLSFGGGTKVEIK

The parent's light chain CDRs are KSSQSVLYESRNKNSVA, WASTRES, QQYHRLPLS; each variant's own CDRs replace them letter for letter. Affinities are written as log10 Kd with Kd in nM; a lower number is a better binder. The mean shown is taken over the replicates in which the pair was detected. Where no diploid with the target was found in any replicate, the entry reads "nd": below detection, most likely a poor binder, though not proof of it.

CDR-L1,CDR-L2,CDR-L3,"mean, log10 nM",replicates with signal,control signals
YSSISYLYESPNKNSVA,EASTRES,QQYHRLPLS,0.73,6/6,0/18
KLMQSALYESRNKNSVA,GASTRES,QQYHRLPLS,-0.09,6/6,1/18
KISQSVEYESRNKNSVA,NASTRES,QQYHRLPLS,-0.18,6/6,4/18
KLCQSMLYESRNKNSVA,MASTRES,QQYLRLPLS,0.97,6/6,2/18
KLSWKSLHGDLRWSAVA,NEVVRLA,QQYFRLPIQ,nd,0/6,0/18
KIGYNTGQESFHKDNIA,DVRDREE,QQYHRLPLS,0.52,6/6,0/18
KASQSQGYESRNKWSVA,NASTRES,QQYHRLPLS,0.60,6/6,1/18
KLSQSVLYESRVKNSVA,DASQRES,QQYHRLPLS,0.35,6/6,2/18
KISMYLNKESKAGNNVA,EMVNREA,QQYDRLPLS,1.88,6/6,1/18
MISQLMNMGQFAINSVA,QASLRNE,QQYDRLPLA,1.48,6/6,1/18
KLSQSVLYESRNKNSVA,HASTREV,QQYHRLPLS,0.07,6/6,3/18
RLLDWAYNLTAKDSNIA,DSDISGS,QQYSHLPLA,1.29,5/6,1/18
HLKTMPGEGPQEYSSIA,HAELRTP,QQYYRLPLM,0.59,6/6,0/18
KLPQSKLYESRNKNSVA,NASTRES,QQYHRLPLS,-0.05,6/6,1/18
NLEMFDGMLNMYASSIA,NAHCLVQ,QQYYRLPIS,1.97,6/6,3/18
HLSQSVLYESRNKNSVA,QASTRES,QQYHRLPLS,-0.14,6/6,0/18
KSSQSYLGESRNKNSVA,QASTRES,QQYHRLPLS,0.16,6/6,2/18
HMSAVTMMGMRHRNSVA,QMTMREN,QQYDRLPLS,1.77,6/6,2/18
KLAQGIYEPWRHSHNIA,EASHVCD,QQYARLPLE,0.87,6/6,1/18
KISQTSEMETKNRNSVA,ELVTRMS,QQYNRLPLS,1.78,5/6,1/18
KLTWSQYNWTSHYQAVA,EQNMRAT,QSYYRLPFS,2.74,6/6,0/18
KVSSSVNYGQRNKNSVA,DASQRES,QQYHRLPLS,-0.67,6/6,0/18
HIDQYTSYDNGENRAIA,DVTIKDY,QQYARLPLL,0.89,6/6,1/18
KLSMSMRYESENKNSIA,ELVTRMS,QQYHRLPLS,0.99,6/6,0/18
KLQQSELYESRNKNSVA,GASQRES,QQYHRLPLS,0.00,6/6,0/18
IVSQLMIWGMHLKNSIA,EAETRLN,QQYDRLPLF,1.98,2/6,0/18

Continued, with the values leading:

"mean, log10 nM",replicates with signal,control signals,CDR-L1,CDR-L2,CDR-L3
1.23,6/6,0/18,KSLQSHLYESRNKNSVA,HASTREQ,QQYHRLPLS
0.11,6/6,3/18,HLSQSVLYESRNKNSVA,NASYRES,QQYHRLPLS
0.27,6/6,1/18,KLSGSDLYESRNSNSVA,HGSTRES,QDYHRLPLS
1.83,2/6,1/18,KFNMEVGGQNNNKYAIA,AAHQLEY,QTYHRLPLS
2.29,3/6,0/18,HVSESIFAQMKMRNSVA,ENSTRES,QQYDRLPLS
0.33,6/6,1/18,KLYQNVGTMSHNKQSIA,DMERRED,QQYHRLPLS
0.34,6/6,4/18,KITGQYRYEQLSKNSIA,EAQTRLK,QQYHRLPLS
0.52,6/6,2/18,KSSQSLLYESRNKNSVA,DASTRES,QQYHRLPLS
1.00,6/6,1/18,KLMGQGDHSIEHANSIA,NVDIVDM,QQYAHLPLS
1.46,5/6,1/18,HITYGMYVAGRHSHSIA,QAETREK,QQYDRLPLS
0.01,6/6,0/18,KLPQKWLYESRNKNNVA,NASCREQ,QQYHRLPLS
nd,0/6,0/18,KSSQLVLYESRNKNSVA,QASTREP,QQYHRLPCS
0.21,6/6,0/18,NIYQAMHTLSQMKDNVA,DVNERGN,QQYYRLPLS
nd,0/6,0/18,QLQLQPREGAQEQNSIA,DESEADM,QHYARLPLT
0.26,6/6,1/18,KSSQSVQFESRNKNSVA,DASTRES,QQYHRLPLS
0.15,6/6,1/18,KLSQSWLYESRNKNSVA,HASTRES,QDYHRLPLS
-0.05,6/6,0/18,KLSWSMLYESRNKNSVA,NASTRES,QQYHRLPLS
1.20,6/6,0/18,KSSISYLYESLNKYSVA,EASQRES,QQYHRLPLS
2.03,6/6,1/18,KIGQLTTYHSQIGNSIA,QTSTREE,QQYHRLPLS
-0.30,6/6,0/18,KVDSAVNYEQRNKNSVA,DASQRES,QQYHRLPLS
0.96,6/6,0/18,MVSQLMLWGLHAKNSIA,EAETRLN,QQYDRLPLE
-0.20,6/6,0/18,KSSQSVLYEDRVKNSVA,GAQTRES,QQYHRLPLS
1.00,6/6,0/18,KISQMVTYESTWHNAIA,QTSERES,QQYHRLPFS
1.34,4/6,0/18,SLHMYTLGEKNANSSIA,EKSYRAI,QQYSHLPLC
1.80,2/6,0/18,QISVFELQGTGWAQNIA,QADHRTE,QQFSRLPLV
0.84,6/6,1/18,KISGLVNFFGHAINSVA,EMETREK,QQYDRLPLS
-0.18,6/6,0/18,KVSISEPYEERNKNNVA,NASTRMS,QQYHRLPLS

9 of these entries, quoted again:

CDR-L1	CDR-L2	CDR-L3	mean, log10 nM	replicates with signal	control signals
KLSQSWLYESRNKNSVA	HASTRES	QDYHRLPLS	0.15	6/6	1/18
KLPQKWLYESRNKNNVA	NASCREQ	QQYHRLPLS	0.01	6/6	0/18
KISQSVEYESRNKNSVA	NASTRES	QQYHRLPLS	-0.18	6/6	4/18
KISGLVNFFGHAINSVA	EMETREK	QQYDRLPLS	0.84	6/6	1/18
KSSQLVLYESRNKNSVA	QASTREP	QQYHRLPCS	nd	0/6	0/18
KVSISEPYEERNKNNVA	NASTRMS	QQYHRLPLS	-0.18	6/6	0/18
KLMGQGDHSIEHANSIA	NVDIVDM	QQYAHLPLS	1.00	6/6	1/18
KVSSSVNYGQRNKNSVA	DASQRES	QQYHRLPLS	-0.67	6/6	0/18
KLCQSMLYESRNKNSVA	MASTRES	QQYLRLPLS	0.97	6/6	2/18

The authors averaged sequences with at least three values out of six and counted those with two or fewer as poor binders. A sequence measured in both rounds can read differently, since the two assays cover different ranges. Three control strains display no target. For all light chain designs, 4% of the pairings with them gave a signal, with a median of 2.64 and one signal in twenty below 1.59, so weak values seen in few replicates may be background. For each scFv, signals with the empty controls are counted beside the result. Of ten entries with the parent sequence, four were seen in most replicates (averages 0.34 to 2.37), three in one and three in none, so single entries are noisy.

From the AlphaSeq antibody data of Li et al. 2023 (doi:10.1038/s41467-023-39022-2), copy in the FLAb collection.